Measurements reported in patent US11377429B2, “Benzothia(di)azepine compounds and their use as bile acid modulators” (Albireo AB, priority 2020, dated 2022).

Protein sequences, listed by entry. Tags and fused reporters are not part of them.
UniProt Q14973, whole entry: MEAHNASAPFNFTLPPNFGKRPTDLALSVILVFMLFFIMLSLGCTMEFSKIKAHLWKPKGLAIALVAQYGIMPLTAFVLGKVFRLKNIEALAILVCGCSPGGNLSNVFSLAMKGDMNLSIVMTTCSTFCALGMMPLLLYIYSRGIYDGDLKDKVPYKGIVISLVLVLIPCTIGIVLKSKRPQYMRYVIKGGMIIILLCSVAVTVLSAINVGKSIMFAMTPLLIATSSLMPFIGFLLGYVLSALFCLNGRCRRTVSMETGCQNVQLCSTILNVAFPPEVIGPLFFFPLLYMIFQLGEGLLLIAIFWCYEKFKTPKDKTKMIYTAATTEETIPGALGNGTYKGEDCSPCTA
UniProt Q12908, whole entry: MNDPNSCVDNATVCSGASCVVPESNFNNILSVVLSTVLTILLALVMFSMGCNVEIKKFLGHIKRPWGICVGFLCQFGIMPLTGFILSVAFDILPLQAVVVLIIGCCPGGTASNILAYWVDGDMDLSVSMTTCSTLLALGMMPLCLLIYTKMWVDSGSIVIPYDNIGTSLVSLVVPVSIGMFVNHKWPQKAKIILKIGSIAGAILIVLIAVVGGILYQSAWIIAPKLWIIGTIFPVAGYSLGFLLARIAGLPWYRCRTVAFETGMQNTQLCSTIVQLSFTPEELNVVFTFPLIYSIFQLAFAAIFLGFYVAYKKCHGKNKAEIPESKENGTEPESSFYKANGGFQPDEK

Assays:
Human LBAT = Human LBAT (Homo sapiens, UniProt Q14973); experiment: LBAT (h/m) assay, human LBAT-overexpressing cells, 3H-taurocholic acid uptake; settings: read-out: hLBAT IC50
Human IBAT = Human IBAT (Homo sapiens, UniProt Q12908); experiment: IBAT (h/m) assay, human IBAT-overexpressing cells, 3H-taurocholic acid uptake; settings: read-out: hIBAT IC50

Compound | IC50 (Human LBAT) [nM] | IC50 (Human IBAT) [nM]
CCC1(CC)CN(c2ccccc2)c2cc(SC)c(OCC(C)(F)C(=O)O)cc2S(=O)(=O)C1 (single isomer, unassigned) [7, enantiomer 1] | 50 | 175
CCCCC1(CC)CN(c2ccc(F)cc2)c2cc(SC)c(OCC(C)(C)C(=O)O)cc2S(=O)(=O)C1 (single isomer, unassigned) | 138 | 7
CCC1(CC)CN(c2ccccc2)c2cc(SC)c(OCC(C)(F)C(=O)O)cc2S(=O)(=O)C1 (single isomer, unassigned) [7, enantiomer 2] | 472 | 701
CCCCC1(CC)CN(c2ccc(F)cc2)c2cc(SC)c(OCC3(C(=O)O)CC3)cc2S(=O)(=O)C1 (single isomer, unassigned) | 903 | 3
